Test results reported in ChEMBL document CHEMBL4507293 (2021).

Sequences of proteins named here, by UniProt entry; tags and fusion partners are left off.
UniProt Q92918, whole entry, looked up: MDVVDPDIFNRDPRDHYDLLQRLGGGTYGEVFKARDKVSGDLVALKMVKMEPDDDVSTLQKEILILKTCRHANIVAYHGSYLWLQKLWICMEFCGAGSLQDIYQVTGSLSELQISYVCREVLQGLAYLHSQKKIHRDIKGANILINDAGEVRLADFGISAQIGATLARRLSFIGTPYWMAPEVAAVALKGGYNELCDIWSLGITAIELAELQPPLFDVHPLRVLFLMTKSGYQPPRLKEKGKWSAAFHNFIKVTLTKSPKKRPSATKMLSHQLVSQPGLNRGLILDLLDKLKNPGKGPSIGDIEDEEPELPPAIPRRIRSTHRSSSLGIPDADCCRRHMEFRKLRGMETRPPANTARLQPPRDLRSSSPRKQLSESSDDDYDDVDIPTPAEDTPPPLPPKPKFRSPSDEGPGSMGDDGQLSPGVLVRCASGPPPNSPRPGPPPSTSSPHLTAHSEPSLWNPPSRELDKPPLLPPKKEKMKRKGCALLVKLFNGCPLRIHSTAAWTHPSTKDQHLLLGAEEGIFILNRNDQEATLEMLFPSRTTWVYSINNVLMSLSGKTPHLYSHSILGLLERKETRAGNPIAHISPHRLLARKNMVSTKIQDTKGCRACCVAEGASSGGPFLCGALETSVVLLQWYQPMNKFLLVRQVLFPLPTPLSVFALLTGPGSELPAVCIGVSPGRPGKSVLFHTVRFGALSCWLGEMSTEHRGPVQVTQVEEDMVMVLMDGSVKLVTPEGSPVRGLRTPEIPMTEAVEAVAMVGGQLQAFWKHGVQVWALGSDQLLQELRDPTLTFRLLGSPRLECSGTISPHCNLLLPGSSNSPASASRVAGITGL
UniProt O14578, whole entry: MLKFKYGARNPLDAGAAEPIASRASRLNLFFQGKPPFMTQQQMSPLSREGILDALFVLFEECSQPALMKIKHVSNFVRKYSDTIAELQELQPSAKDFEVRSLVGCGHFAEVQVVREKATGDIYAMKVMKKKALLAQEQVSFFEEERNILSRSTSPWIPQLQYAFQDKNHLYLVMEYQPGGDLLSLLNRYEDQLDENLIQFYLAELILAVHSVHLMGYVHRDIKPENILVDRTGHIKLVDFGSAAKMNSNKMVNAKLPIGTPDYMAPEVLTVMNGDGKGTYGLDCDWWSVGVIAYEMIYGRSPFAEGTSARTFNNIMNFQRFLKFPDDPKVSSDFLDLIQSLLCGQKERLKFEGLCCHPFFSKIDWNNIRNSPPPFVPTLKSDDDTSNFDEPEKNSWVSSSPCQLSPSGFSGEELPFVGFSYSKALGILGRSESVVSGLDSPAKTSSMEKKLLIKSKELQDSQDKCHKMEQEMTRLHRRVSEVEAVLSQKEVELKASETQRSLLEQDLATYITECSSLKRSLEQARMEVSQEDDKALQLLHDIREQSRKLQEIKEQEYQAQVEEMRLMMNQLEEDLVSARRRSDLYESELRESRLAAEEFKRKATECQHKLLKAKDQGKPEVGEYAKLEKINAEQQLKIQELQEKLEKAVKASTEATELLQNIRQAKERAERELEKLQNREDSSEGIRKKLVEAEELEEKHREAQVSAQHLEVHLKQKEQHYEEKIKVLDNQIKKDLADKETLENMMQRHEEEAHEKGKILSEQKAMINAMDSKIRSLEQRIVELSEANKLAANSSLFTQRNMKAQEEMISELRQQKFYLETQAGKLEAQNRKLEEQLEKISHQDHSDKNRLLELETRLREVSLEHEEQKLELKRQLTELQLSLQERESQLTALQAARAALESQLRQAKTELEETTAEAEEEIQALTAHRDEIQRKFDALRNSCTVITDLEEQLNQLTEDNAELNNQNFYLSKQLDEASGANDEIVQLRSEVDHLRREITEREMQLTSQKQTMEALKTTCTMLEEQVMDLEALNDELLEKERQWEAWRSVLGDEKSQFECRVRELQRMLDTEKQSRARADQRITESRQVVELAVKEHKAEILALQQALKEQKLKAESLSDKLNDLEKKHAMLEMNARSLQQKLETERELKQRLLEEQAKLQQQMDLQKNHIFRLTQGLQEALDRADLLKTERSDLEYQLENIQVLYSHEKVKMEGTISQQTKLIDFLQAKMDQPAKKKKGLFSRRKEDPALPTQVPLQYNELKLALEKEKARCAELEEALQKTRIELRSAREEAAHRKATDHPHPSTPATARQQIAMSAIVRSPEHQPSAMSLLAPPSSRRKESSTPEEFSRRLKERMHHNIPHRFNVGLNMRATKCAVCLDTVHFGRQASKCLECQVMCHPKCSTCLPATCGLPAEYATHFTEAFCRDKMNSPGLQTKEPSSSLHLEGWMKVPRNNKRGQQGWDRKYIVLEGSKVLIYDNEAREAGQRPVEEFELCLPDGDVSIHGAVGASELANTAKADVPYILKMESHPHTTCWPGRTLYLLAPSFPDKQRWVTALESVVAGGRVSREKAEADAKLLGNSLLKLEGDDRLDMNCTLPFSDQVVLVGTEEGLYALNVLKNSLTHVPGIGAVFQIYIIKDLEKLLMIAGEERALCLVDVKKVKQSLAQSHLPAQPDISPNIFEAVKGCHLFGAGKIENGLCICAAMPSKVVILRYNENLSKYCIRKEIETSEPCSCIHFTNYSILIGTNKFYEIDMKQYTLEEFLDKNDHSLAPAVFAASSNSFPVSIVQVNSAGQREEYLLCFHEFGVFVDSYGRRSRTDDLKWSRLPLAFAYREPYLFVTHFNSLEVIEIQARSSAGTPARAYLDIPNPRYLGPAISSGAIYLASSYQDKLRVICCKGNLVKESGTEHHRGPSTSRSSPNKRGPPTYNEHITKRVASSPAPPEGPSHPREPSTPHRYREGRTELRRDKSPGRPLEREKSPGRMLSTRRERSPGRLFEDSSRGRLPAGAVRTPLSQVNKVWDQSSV
Phosphatidylinositol 4,5-bisphosphate 3-kinase catalytic subunit alpha isoform (Homo sapiens), P42336, UniProt P42336, whole entry H1047L: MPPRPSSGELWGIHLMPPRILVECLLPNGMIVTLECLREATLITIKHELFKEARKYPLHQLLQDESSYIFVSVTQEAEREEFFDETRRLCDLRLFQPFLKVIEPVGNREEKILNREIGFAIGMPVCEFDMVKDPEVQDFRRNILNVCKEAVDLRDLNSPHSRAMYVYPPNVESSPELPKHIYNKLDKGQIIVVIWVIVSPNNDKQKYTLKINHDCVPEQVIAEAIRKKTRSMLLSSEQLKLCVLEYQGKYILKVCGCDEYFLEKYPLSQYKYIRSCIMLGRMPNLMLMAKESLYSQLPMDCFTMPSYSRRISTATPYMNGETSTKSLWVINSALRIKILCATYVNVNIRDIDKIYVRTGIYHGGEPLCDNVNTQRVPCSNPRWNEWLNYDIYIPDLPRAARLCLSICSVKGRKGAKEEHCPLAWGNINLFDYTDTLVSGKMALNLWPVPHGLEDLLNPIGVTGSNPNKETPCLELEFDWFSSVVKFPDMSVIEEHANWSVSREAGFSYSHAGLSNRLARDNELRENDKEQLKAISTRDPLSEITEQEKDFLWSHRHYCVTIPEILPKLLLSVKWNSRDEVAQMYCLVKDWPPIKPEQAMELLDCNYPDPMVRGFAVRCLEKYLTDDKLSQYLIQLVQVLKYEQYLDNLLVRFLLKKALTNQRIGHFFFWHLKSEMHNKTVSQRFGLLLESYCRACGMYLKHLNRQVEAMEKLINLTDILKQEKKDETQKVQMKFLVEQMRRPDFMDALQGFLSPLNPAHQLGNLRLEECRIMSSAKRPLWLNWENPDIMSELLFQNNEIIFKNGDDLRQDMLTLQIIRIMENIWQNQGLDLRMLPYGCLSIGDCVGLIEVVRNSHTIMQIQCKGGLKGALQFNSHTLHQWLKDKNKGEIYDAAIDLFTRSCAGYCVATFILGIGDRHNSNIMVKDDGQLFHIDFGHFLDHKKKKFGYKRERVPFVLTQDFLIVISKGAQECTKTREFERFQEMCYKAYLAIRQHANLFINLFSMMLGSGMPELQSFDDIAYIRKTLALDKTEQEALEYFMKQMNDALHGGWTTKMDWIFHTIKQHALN

What was measured:
[1] = biological target: Mitogen-activated protein kinase kinase kinase kinase 1 (Homo sapiens) (UniProt Q92918); conditions: Compound concentration 100.0 nM
[2] = biological target: T1, Phosphatidylinositol 5-phosphate 4-kinase type-2 gamma (Homo sapiens) (UniProt Q8TBX8); conditions: Compound concentration 100.0 nM
T1 sequence (whole entry): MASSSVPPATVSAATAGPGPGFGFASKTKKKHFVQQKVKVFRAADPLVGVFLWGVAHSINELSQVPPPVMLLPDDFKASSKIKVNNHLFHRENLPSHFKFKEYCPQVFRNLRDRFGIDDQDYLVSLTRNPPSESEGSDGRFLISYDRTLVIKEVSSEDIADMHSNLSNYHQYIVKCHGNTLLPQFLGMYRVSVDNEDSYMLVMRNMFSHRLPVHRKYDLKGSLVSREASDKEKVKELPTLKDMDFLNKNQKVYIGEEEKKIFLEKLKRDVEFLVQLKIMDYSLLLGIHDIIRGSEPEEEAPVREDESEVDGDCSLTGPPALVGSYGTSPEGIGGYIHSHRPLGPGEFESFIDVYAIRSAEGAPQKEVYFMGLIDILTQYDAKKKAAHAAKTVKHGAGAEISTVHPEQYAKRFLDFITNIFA

[3] = biological target: Citron Rho-interacting kinase (Homo sapiens) (UniProt O14578); conditions: Compound concentration 100.0 nM
[4] = test system: Phosphatidylinositol 4,5-bisphosphate 3-kinase catalytic subunit alpha isoform (Homo sapiens), P42336 [H1047L]; conditions: Compound concentration 100.0 nM
[5] = test system: Cysteinyl leukotriene receptor 2; assay: Leukotriene, Cysteinyl CysLT2 Eurofins-Panlabs radioligand binding assay; conditions: Homo sapiens; Compound concentration 10.0 uM
[6] = biological target: T2, Mitogen-activated protein kinase kinase kinase 2 (Homo sapiens) (UniProt Q9Y2U5); conditions: Compound concentration 100.0 nM
T2 sequence (whole entry): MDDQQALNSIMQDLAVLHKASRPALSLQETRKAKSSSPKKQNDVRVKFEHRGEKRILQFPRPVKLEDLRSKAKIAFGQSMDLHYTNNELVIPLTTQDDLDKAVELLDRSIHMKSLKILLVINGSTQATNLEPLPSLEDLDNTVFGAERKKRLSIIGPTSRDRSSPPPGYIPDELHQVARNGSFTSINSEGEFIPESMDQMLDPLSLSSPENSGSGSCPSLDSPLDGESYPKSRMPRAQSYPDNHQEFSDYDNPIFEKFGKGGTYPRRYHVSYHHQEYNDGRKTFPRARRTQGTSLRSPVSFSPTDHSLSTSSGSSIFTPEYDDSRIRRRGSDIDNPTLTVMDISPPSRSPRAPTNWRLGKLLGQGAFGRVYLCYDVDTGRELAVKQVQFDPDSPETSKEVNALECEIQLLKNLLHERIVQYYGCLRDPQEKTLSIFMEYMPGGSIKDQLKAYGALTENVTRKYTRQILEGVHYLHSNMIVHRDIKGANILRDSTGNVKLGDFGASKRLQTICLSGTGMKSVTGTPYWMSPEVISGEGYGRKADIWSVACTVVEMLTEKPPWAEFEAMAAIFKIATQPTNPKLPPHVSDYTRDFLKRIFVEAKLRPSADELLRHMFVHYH

[7] = biological target: T3, Serine/threonine-protein kinase ULK1 (Homo sapiens) (UniProt O75385); conditions: Compound concentration 100.0 nM
T3 sequence (whole entry): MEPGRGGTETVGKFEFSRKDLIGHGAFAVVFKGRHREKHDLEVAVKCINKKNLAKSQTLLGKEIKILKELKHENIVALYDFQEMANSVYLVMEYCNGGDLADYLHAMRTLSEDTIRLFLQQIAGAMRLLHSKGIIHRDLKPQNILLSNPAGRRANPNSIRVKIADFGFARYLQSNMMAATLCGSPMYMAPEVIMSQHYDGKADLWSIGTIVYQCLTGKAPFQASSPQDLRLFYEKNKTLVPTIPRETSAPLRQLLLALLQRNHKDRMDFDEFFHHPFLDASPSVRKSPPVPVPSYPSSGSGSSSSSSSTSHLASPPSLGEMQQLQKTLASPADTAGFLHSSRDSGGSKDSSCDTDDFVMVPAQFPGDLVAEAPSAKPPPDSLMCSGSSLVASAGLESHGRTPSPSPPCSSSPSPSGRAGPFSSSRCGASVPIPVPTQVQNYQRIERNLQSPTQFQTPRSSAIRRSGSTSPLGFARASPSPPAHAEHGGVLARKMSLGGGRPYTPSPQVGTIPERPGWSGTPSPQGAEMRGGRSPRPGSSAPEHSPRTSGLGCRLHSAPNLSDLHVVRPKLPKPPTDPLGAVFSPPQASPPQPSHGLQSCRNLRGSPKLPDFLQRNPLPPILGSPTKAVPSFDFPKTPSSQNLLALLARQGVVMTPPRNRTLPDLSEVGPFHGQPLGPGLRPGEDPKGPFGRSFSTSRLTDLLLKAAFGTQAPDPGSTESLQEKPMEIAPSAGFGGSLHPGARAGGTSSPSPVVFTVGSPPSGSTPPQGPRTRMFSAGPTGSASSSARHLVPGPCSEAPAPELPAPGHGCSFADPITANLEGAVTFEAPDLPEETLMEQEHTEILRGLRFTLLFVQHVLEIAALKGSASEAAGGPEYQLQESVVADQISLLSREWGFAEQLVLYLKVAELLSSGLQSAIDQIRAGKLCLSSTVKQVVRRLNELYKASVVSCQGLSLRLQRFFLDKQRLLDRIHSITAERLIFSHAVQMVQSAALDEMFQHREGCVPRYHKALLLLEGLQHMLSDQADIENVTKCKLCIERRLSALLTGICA

COCCOc1nc(-c2ccc(Cl)nc2)nc2c1CN(C(=O)c1ncn3ccccc13)CC2 [THPP-1]
inactive: residual activity [1] 92% | residual activity [2] 92% | residual activity [3] 92% | residual activity [4] 92% | inhibition [5] 8% | residual activity [6] 92% | residual activity [7] 92%
